Reference: patent US20240116985A1, “STAPLED PEPTIDES AND METHODS THEREOF” (priority 2020, published 2024)

By UniProt entry, the sequences of proteins in these tests, tags left out.
UniProt P35222, whole entry: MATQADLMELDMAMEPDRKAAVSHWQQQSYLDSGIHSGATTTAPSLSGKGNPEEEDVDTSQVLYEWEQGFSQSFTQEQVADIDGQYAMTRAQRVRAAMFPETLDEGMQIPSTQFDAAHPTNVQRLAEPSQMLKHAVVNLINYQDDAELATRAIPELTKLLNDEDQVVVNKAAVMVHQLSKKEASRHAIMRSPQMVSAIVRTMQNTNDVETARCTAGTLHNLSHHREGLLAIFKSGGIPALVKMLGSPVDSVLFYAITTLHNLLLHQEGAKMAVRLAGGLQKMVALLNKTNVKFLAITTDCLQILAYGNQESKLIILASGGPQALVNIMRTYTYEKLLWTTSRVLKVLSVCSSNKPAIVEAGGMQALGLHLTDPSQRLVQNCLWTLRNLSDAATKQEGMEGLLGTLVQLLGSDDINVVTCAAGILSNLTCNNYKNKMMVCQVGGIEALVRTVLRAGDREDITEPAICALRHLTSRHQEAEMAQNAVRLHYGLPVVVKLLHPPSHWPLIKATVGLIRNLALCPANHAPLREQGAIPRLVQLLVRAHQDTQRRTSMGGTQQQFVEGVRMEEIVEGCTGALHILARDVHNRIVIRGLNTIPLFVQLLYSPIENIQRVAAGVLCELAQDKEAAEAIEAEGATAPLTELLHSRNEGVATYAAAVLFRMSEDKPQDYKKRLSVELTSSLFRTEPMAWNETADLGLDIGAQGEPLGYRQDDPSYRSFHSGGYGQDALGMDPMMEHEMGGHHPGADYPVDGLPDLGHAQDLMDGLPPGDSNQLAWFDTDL

Key:
[1] = target: T1, beta-catenin/TCF4 engagement (Homo sapiens, UniProt P35222); assay: Nano-BRET target engagement assay (B-cat-Halo & TCF4-Luc in HEK293 cells); type: cell-based
T1 construct: expressed in transfected cells; host or cells: HEK293

[2] = target: T2, full-length beta-Catenin (Uniprot ID P35222) (Homo sapiens, UniProt P35222); assay: Fluorescence polarization IC50 (beta-catenin / 5FAM-TCF4 10-53 competition); type: binding; conditions: beta-Catenin FP IC50 (nM)
T2 construct: 10 nM full-length beta-Catenin (Uniprot ID P35222)

Row | Compound | IC50 ([1]; NanoBRET Abs IC50, absolute IC50) [µM] | IC50 [2] [nM] | IC50 ([1]; NanoBRET Abs IC50 (uM)) [µM]
1 | CC(=O)N1CCC[C@]12CC=CCCCC1(CCCC=CCCCOC(=O)N3CC[C@@](C(=O)N[C@@H](Cc4ccccc4C(F)(F)F)C(=O)N[C@@H](Cc4csc5ccccc45)C(=O)N[C@@H](CCC(N)=O)C(N)=O)(C3)NC(=O)[C@H](CC(C)C)NC(=O)[C@H](Cc3ccccc3)NC(=O)[C@H](C)NC(=O)[C@H](C)NC(=O)[C@H](Cc3cccc(C(=O)O)c3)NC(=O)[C@H](CC(=O)O)NC1=O)NC(=O)[C@H](CC(C)(C)C)NC(=O)[C@H](CC(=O)O)NC2=O (stereo partly drawn) [I-1466, Ac-PL3-Asp-Npg-B5-Asp-3COOHF-Ala-Ala-Phe-Leu-PyrS2-2F3MeF-BztA-Gln-NH2] | 2.2 |  | 
2 | CC(=O)N1CCC[C@]12CC=CCCCC1(CCCC=CCCCOC(=O)N3CC[C@@](C(=O)N[C@@H](Cc4ccccc4C(F)(F)F)C(=O)N[C@@H](Cc4csc5ccccc45)C(=O)N[C@H](CCC(N)=O)C(N)=O)(C3)NC(=O)[C@H](CC(C)C)NC(=O)[C@H](Cc3ccccc3)NC(=O)[C@H](C)NC(=O)[C@H](C)NC(=O)[C@H](Cc3cccc(C(=O)O)c3)NC(=O)[C@H](CC(=O)O)NC1=O)NC(=O)[C@H](CC(C)(C)C)NC(=O)[C@H](CC(=O)O)NC2=O (stereo partly drawn) [I-2089, Ac-PL3-Asp-Npg-B5-Asp-3COOHF-Ala-Ala-Phe-Leu-PyrS2-2F3MeF-BztA-dGln-NH2] |  | 28 | 2.9
